This note sets out measurements from ChEMBL document CHEMBL1130399, “Synthesis and pharmacological comparison of dimethylheptyl and pentyl analogs of anandamide” (J Med Chem, 1997).

Chains of the proteins cited; added tags and fusions are not shown. Lines headed by an entry give the natural chain unless they say otherwise; changes in a name come on top.
UniProt Q9QZN9: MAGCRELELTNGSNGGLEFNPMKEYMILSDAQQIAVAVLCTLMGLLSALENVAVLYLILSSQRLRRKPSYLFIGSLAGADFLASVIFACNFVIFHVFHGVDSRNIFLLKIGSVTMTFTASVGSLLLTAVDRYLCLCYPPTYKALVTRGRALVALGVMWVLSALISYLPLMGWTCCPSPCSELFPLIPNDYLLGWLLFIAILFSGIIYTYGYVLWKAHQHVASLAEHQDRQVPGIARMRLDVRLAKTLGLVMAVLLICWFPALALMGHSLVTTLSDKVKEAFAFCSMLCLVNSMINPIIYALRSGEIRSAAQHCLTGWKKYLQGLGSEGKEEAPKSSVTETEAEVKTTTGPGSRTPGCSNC
UniProt P20272: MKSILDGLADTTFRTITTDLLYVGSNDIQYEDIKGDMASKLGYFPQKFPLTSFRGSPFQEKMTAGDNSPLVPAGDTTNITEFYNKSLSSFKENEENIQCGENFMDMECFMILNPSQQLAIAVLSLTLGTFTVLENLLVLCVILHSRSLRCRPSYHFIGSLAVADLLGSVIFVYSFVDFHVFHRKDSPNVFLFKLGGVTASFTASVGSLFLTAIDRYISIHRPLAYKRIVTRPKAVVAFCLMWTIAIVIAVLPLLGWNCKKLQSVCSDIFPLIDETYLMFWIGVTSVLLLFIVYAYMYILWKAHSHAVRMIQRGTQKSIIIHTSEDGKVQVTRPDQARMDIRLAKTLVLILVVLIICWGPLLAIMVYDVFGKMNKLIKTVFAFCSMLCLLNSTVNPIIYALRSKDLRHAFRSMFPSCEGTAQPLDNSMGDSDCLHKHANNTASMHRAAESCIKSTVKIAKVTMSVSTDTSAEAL

In assay [1] the target is T1, Cannabinoid receptor (Rattus norvegicus, UniProt Q9QZN9+P20272). Put plainly: Binding affinity towards cannabinoid receptor using [3H]SR-141,716A as radioligand in rat brain membrane. It is filed as cell membranes.
Assay [2] deals with T1, Cannabinoid receptor. The assay can be described thus: Binding affinity towards cannabinoid receptor using [3H]CP-55940 as radioligand in rat brain membrane. It is filed as cell membranes.

One may read the Ki as the dissociation constant of the complex between target and ligand, obtained from inhibition or displacement. A higher Ki goes with weaker binding.

In turn, `CCCCC/C=C\C/C=C\C/C=C\C/C=C\CCCC(=O)NC[C@H](C)O` had a Ki on Cannabinoid receptor [1] of 2890 nM.
The compound `CCCCC/C=C\C/C=C\C/C=C\C/C=C\CCCC(=O)NCCO` [ANANDAMIDE] gave a Ki at Cannabinoid receptor [2] of 25 nM.
`CCCCC/C=C\C/C=C\C/C=C\C/C=C\CCCC(=O)N[C@H](C)CO` [METHANANDAMIDE]: the Ki at Cannabinoid receptor [2] turned out to be 22 nM; on Cannabinoid receptor [1], 585 nM.
